Assay results: patent EP4847524A2, “FATTY ACID CONJUGATED CYCLIC PEPTIDES” (dated 2026)
pIC50: −log10 of the molar value. Like-named read-outs stand apart in the source and are kept apart here.

The chains behind the UniProt entries cited, without tags or fusion partners. A line that says so, or that is headed by a name, gives the form on record, which may keep a tag or linker. Residues count along the entry.
UniProt Q13324, 1-438 with tags or gaps: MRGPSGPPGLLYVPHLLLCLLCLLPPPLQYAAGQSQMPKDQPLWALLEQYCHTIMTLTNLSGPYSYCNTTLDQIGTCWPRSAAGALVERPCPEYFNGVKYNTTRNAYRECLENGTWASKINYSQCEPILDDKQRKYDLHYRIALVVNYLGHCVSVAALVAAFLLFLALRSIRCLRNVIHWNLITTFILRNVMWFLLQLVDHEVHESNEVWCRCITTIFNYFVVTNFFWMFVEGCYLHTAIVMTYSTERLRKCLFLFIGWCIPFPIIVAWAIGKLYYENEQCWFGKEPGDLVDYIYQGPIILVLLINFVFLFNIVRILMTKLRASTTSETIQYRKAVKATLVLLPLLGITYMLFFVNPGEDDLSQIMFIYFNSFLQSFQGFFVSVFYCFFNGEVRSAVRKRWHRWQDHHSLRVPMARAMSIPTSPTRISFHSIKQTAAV
UniProt P34998, 24-415 limits assumed: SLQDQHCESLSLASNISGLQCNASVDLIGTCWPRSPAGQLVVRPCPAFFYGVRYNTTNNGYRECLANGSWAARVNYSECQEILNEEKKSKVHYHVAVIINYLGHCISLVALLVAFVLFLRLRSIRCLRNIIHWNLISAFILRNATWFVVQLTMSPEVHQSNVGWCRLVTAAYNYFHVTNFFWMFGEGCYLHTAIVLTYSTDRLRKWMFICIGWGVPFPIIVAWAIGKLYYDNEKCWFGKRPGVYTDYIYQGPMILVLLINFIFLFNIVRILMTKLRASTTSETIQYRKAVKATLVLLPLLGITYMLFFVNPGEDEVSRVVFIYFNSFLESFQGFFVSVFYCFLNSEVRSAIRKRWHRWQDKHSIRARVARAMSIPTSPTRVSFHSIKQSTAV

Legend:
[1] = Peptide pharmacokinetics, rat study (IV and SC)
Protocol: Pharmacokinetics of the test peptides were evaluated in vivo as described herein. Male Sprague Dawley rats (300-450 g), male Beagle dogs (5-10 kg) and male cynomolgus monkeys (2-4 kg) were used in the pharmacokinetics (PK) study. All animal procedures were approved by the Institutional Animal Care and Use Committee at the Test Facility.
For intravenous (IV) dosing, compounds were administered by intravenous bolus injection via the jugular vein cannula (JVC), at 0.1 mg/kg or 0.3 mg/kg in 0.01 M phosphate (pH 7.4, 1 mg/mL). For subcutaneous (SC) dosing, compounds were administered in the space over the dorsal region, at 3 mg/kg in 0.1M phosphate (pH 7.4, 0.6 mg/mL).
Serial Blood samples were collected via the JVC at 0.083- (5 minutes), 0.25 (15 minutes), 1, 4, 8, 24, and 48-hours post-dose for IV and 2, 6, 24, 48, 120, 144, and 168-hours post-dose for SC administration.
Blood samples were collected into tubes with K2EDTA. Tubes were stored on wet ice until processed to plasma by centrifugation (2,200 x g at nominal 4°C for 10 minutes) within 60 minutes of collection. Plasma samples were transferred into individual uniquely labeled matrix tubes and stored at nominal -80°C until analysis by liquid chromatography tandem-mass spectrometry (LC-MS/MS).
The plasma samples were prepared by solid phase extraction (SPE) using a Waters PRiME HLB Microelution plate. The SPE plate was conditioned using water:methanol (50:50, v/v) and 0.5% tween 80 in water. After pretreated samples were loaded, wells were washed with 5% methanol in water and 0.1% TFA in water:acetonitrile (80:20, v/v). Wells were eluted with 0.1% formic acid, 0.5% 2,2,2-trifluoroethanol in water:acetonitrile (20:80, v/v) followed by a dilution with 0.1% formic acid, 0.1% tween 80 in water for analysis by LC-MS/MS. The analyte and internal standard (IS) were separated by reversed-phase chromatography using a Shimadzu Nexera X2 UHPLC system and Phenomenex bioZen Peptide PS-C18 50x2.1-mm, 3µm column. The analyte and IS were detected using an Applied Biosystems Sciex API 6500 triple quadrupole mass spectrometer. The mass spectrometer was equipped with an electrospray ionization source operated in the positive-ion mode. The analyte and internal standard were monitored in the multiple-reaction-monitoring scan mode.
Noncompartmental pharmacokinetic parameters were calculated using Phoenix® WinNonlin® software (Version 8.3; Linear Up Log Down Interpolation Calculation Method; Certara L.P.).

human CRF-R2 beta = human CRF-R2 beta (Homo sapiens, UniProt Q13324); experiment: cAMP assay in transfected CHO-K1 cells
Protocol: (§1) cAMP was determined utilizing a DiscoverX HitHunter assay Enzyme Fragment Complementation (EF) technology purchased from Eurofins as described in the manufacturing instructions with some adjustments. IC50's were calculated from antagonist dose response curves utilizing interpolated cAMP levels and/or relative light unit (RLU) data. In addition, eXpress assay ready cAMP kits were also utilized with hCRF-R1 and hCRF-R2 division arrested cells according to the manufacturing instructions. Briefly, antagonist dilutions were prepared in assay buffer: Gibco Hank's Buffered Salt Solution (Gibco 30-410, HBSS) supplemented with + 10 mM HEPES Buffer (Gibco 15630-080), containing 6X Tween-20 (Gibco BP337-100; final concentration in wells 0.01%). After removal of the culture media in cells, assay buffer (30 µl) was added to each of the wells on the plate utilizing a multichannel pipettor (INTEGRA VIAFLO 300 µl). The various antagonist dilutions (7.5 µl) at 6X concentration were added to the wells according to the assay protocol plate map and the plate was incubated for 30 min at 37°C. To compare the effects of albumin on the antagonist IC50, assays were also performed by diluting the compounds as described above in assay buffer containing 0.1% [w:v] bovine serum albumin (BSA) or no BSA (Bovine Albumin Fraction V, Fatty Acid Free: MP Biomedicals, Cat. 152401, Lot. S8210). Immediately thereafter, 7.5 µl (6X) of agonist (hCRF for hCRF-R1, hUCN1 for hCRF-R2) was added at a final concentration of 1 nM/well; approximately EC80) followed by a further incubation for 30 min at 37°C. Following the incubation of the antagonists and agonists, 15 µl of Eurofins HitHunter cAMP antibody solution and 60 µl of the Working Detection Solution were added followed by a 1 h incubation at room temperature in the dark. Finally, 60 µl of cAMP Solution A was added followed by a further incubation overnight (approx. 18 h). The total final reaction volume was 180 µl/well. The resulting chemiluminescent signal was measured in a Tecan Spark luminometer.
(§2) For transient transfections, plasmid constructs were supplied by GenScript for rat, cynomolgus monkey, and canine CRF-R1 alpha, and CRF-R2 beta subtypes, as well as human CRF-R1 alpha and CRF-R2 alpha, beta and gamma subtypes all cloned into a pCDNA3.1 (Neo^R) vector. Briefly, Chinese hamster ovary strain K1 (CHO-K1) parental cells were expanded from a liquid nitrogen-stored working bank vial (1.0E+6 cells) by thawing at 37°C for 60 seconds, followed by expansion in 30 ml CHO-K1 Complete Media in a T-225 flask. Cells were passaged at least once by aspirating-out used culture media and washing adherent cells once in phosphate buffered saline without divalent cations (Intermountain BSS-PBS-1X6), followed by dislodging the adherent cells using Enzyme-free cell dissociation buffer (EFDB, Millipore Sigma C5789) and subsequent continued culture in complete media.
(§3) On Day 0, CHO-K1 parental cells were harvested when ~ 90% confluent, seeded into 6-well plates (Costar 3516) at approximately 400,000 cells/well, and cultured overnight in complete media. On Day +1 the cells were monitored for optimal confluence (60-75%), health, cell distribution and morphology, and the media was changed by aspiration with the addition of 2mL fresh complete media. Lipid:DNA complexes were prepared by either: (i) mixing 2.5 µg of plasmid DNA into 500 µl OptiMEM reduced serum media (Gibco Cat# 31985062) together with 9 µl of Lipofecamine LTX (Invitrogen™ Cat# 15338100) followed by incubation for 25 minutes at room temperature; or (ii) mixing 2.0 µg of plasmid DNA into 82 µl OptiMEM with 16 µl of FuGENE 6 (Promega Cat# E2691), at a 4:1 lipid:pDNA volume ratio, followed by incubation for 45 minutes at room temperature. Lipid:DNA complexes were subsequently added dropwise directly onto cells on the 6-well plate. […]

human CRF-R1 alpha = human CRF-R1 alpha (Homo sapiens, UniProt P34998); experiment: cAMP assay in transfected CHO-K1 cells; conditions: mean of 3 data points (n=3)
Protocol: as §1, §2, §3

Ac-Asp-Leu-Thr-D-Phe-His-Leu-Leu-Arg-Glu-Val-Leu-Glu-Nle-K*-Arg-Glu-Glu-Gln-cVal-Ala-Gln-E#-Ala-Glu-K#-Asn-Arg-Lys-Leu-Nle-Glu-cVal-Ala-CONH2
IV CL ([1]; IV dose 0.1 mg/kg): 2.7 mL/h/kg
IV Vd ([1]; IV dose 0.1 mg/kg): 0.078 L/kg
IV t1/2 ([1]; IV dose 0.1 mg/kg): 21.5 h
SC AUC ([1]; SC Dose 3 mg/kg): 708 µg·h/mL
SC Cmax ([1]; SC Dose 3 mg/kg): 14700 ng/mL
SC Tmax ([1]; SC Dose 3 mg/kg): 24 h
SC t1/2 ([1]; SC Dose 3 mg/kg): 20.0 h
SC F ([1]; SC Dose 3 mg/kg, IV dose 0.1 mg/kg): 79%
selectivity for CRF1 over CRFR2β (human CRF-R2 beta; ratio of cAMP IC50 values): approximately 8 times
IC50 (human CRF-R2 beta; read-out: CRFR2β (IC50 nM), Human, mean of 3 data points (n=3)): 12 nM
pIC50 (human CRF-R2 beta; read-out: IC50 for CRFR2β, Table 16, mean of 3 data points (n=3)): 7.92
IC50 (human CRF-R1 alpha; read-out: CRFR1 (IC50 nM), Human): 1.6 nM
pIC50 (human CRF-R1 alpha; read-out: IC50 for CRFR1, Table 16): 8.80
